Data published in patent US20260274797A1, “PROPIONIC ACID DERIVATIVE AND USE THEREOF IN MEDICINE” (Xizang Haisco Pharmaceutical Co., Ltd., priority 2022, published 2026).

Amino acid sequences for entries named in this document (tags omitted). Residues count along the entry.
UniProt P13612, 34-1032 limits assumed: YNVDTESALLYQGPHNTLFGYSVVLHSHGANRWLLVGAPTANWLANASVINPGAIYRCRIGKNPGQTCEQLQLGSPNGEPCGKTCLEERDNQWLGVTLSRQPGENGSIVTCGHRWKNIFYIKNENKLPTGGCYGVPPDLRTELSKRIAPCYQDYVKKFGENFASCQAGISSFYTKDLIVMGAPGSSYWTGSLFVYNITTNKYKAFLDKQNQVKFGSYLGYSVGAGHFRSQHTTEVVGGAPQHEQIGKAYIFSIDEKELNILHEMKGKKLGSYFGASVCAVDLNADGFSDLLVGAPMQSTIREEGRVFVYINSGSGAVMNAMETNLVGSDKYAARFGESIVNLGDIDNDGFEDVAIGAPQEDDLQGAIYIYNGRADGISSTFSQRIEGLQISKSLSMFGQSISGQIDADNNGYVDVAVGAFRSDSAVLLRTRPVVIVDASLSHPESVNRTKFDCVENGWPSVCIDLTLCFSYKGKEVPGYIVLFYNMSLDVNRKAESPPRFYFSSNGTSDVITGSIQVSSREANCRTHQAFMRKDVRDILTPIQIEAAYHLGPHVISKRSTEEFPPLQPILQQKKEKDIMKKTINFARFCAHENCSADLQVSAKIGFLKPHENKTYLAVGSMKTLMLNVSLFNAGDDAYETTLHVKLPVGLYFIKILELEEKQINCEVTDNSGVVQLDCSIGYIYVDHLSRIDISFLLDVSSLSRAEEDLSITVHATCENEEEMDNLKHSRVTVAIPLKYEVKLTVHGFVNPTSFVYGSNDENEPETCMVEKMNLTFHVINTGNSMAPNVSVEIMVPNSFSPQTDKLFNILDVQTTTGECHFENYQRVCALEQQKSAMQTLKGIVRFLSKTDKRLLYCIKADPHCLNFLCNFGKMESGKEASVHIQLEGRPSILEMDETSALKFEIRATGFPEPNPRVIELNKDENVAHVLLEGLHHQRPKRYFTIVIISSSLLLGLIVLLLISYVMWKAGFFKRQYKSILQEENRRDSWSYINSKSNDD
UniProt P26010, 20-798 limits assumed: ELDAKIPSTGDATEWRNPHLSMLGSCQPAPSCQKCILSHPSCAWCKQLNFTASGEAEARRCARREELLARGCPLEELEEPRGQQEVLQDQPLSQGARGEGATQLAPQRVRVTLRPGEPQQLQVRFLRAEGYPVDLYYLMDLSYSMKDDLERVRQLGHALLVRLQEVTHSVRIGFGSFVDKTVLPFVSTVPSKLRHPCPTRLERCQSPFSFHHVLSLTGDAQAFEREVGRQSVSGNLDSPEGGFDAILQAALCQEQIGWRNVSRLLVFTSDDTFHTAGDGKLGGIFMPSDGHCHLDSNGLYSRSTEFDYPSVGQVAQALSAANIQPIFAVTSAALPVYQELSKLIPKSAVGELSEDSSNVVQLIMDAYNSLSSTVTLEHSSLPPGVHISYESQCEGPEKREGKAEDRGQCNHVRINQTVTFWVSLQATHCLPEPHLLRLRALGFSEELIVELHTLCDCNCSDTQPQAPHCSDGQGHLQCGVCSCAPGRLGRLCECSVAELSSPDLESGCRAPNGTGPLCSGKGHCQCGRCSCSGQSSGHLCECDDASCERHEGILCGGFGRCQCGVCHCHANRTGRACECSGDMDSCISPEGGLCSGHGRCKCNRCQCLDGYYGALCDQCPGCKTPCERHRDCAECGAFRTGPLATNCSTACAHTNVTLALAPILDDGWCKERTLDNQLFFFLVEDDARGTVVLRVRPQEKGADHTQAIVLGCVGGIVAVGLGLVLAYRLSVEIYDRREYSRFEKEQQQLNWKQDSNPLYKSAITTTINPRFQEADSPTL
UniProt P05556, 21-798 limits assumed: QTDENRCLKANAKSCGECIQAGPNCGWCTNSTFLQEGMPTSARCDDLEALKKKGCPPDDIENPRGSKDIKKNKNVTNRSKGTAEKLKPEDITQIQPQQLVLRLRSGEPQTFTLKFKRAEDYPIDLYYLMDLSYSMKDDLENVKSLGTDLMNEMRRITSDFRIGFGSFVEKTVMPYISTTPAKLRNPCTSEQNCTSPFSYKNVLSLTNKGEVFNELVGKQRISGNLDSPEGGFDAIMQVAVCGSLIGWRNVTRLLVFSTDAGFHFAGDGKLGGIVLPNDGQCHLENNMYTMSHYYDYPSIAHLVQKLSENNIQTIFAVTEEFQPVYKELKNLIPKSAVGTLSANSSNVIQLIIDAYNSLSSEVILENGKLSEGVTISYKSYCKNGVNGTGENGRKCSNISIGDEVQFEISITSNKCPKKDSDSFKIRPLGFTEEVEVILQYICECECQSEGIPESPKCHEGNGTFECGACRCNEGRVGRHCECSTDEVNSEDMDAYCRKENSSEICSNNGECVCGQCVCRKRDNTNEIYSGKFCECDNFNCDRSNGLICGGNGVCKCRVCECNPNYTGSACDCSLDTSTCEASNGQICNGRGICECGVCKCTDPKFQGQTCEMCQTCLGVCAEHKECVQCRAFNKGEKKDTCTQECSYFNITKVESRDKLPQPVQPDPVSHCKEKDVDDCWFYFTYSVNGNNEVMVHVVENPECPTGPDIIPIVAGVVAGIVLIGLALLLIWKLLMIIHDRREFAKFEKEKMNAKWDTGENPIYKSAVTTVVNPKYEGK

How the values were obtained:
[1] = Pharmacokinetic test in mice; conditions: for CL: IV: 1 mg/kg; for AUC: PO: 10 mg/kg
[2] = Pharmacokinetic test in rats; conditions: for CL: IV: 1 mg/kg; for AUC: PO: […]
[3] = Test of stability in liver microsomes (monkey); conditions: 1 μM test compound, NADPH, 37° C.
[4] = Test of stability in liver microsomes (mouse); conditions: 1 μM test compound, NADPH, 37° C.
integrin α4β7 = integrin α4β7 (Homo sapiens, UniProt P13612+P26010); test: Integrin α4β7 cell adhesion assay (RPMI8866 cells on MAdCAM-1); assay type: cell-based; conditions: read-out: RPMI-8866 (α4β7)/MadCAM-1 IC50; RPMI8866 cells adhering to MAdCAM-1; α4β7-mediated cell adhesion
integrin α4β1 = integrin α4β1 (Homo sapiens, UniProt P05556+P13612); test: Integrin α4β1-mediated cell adhesion assay (Jurkat cells on VCAM); assay type: cell-based; conditions: for IC50: read-out: Jurkat (α4β1)/VCAM-1 IC50, Jurkat cells adhering to VCAM-1, α4β1-mediated cell adhesion; for α4β1/α4β7: selectivity ratio, Jurkat (α4β1)/VCAM-1 IC50 over RPMI-8866 (α4β7)/MadCAM-1 IC50
[5] = Test of stability in liver microsomes (rat); conditions: 1 μM test compound, NADPH, 37° C.

| CL [1] [mL/min/kg] | AUC [1] [ng·h/mL] | F ([1]; PO: 10 mg/kg vs IV: 1 mg/kg) [%] | CL [2] [mL/min/kg] | AUC [2] [ng·h/mL] | Hepatic intrinsic clearance CLint(liver) [3] [mL/min/kg] | T1/2 [3] [h] | Test compound after 1 h incubation Remaining % (T = 60 min) [3] [%] | Hepatic intrinsic clearance CLint(liver) [4] [mL/min/kg] | T1/2 [4] [h] | Test compound after 1 h incubation Remaining % (T = 60 min) [4] [%] | IC50 (integrin α4β7) [nM] | IC50 (integrin α4β1) [nM] | α4β1/α4β7 (integrin α4β1) | Hepatic intrinsic clearance CLint(liver) [5] [mL/min/kg] | T1/2 [5] [h] | Test compound after 1 h incubation Remaining % (T = 60 min) [5] [%] | SMILES |
| --- | --- | --- | --- | --- | --- | --- | --- | --- | --- | --- | --- | --- | --- | --- | --- | --- | --- |
| 14.0 | 5501 | 45.9 | 8.84 | 3172 | 99.2 | 0.315 | 11.6 | 34.6 | 2.65 | 80.8 | ≤ 0.5 | > 100 | 240 | 15.1 | 2.75 | 77.3 | Cc1cc(F)cc(C)c1-c1c(F)c(C(CC(=O)O)NC(=O)[C@H](CC(C)C)n2cc(CCN3CCC3)c(C(F)(F)F)cc2=O)c(F)c2c1CCC2 (stereo partly shown) |
|  |  |  |  |  |  |  |  |  |  |  | < 0.5 | > 50 | 194 |  |  |  | CCN(CC)CCc1cn([C@@H](CC(C)C)C(=O)NC(CC(=O)O)c2c(F)c3c(c(-c4c(C)cc(F)cc4C)c2F)CCC3)c(=O)cc1C(F)(F)F (stereo partly shown) |
|  |  |  |  |  |  |  |  |  |  |  | < 10 | > 4000 | >1200 |  |  |  | COc1cc(C)c(-c2c(F)c(C(CC(=O)O)NC(=O)C(CC(C)C)n3cc(CCN4CC(C)(F)C4)c(=O)n(C)c3=O)c(F)c3c2CCC3)c(C)c1 (stereo not shown) |
| 13.3 | 1259 |  | 8.76 | 3084 | 31.3 | 0.997 | 47.2 | <29.5 | >0.3 | 83.8 | < 0.5 | > 300 | 3651 | 19.5 | 2.13 | 74.5 | COc1cc(C)c(-c2c(F)c(C(CC(=O)O)NC(=O)[C@H](CC(C)C)n3cc(CCN4CCC4)c(C(F)(F)F)cc3=O)c(F)c3c2CCC3)c(C)c1 (stereo partly shown) |
|  |  |  |  |  |  |  |  |  |  |  | < 0.5 |  |  |  |  |  | [2H]C([2H])([2H])Oc1cc(C)c(-c2c(F)c(C(CC(=O)O)NC(=O)[C@H](CC(C)C)n3cc(CCN(C)C)c(C(F)(F)F)cc3=O)c(F)c3c2CCC3)c(C)c1 (stereo partly shown) |

| SMILES | CL [1] [mL/min/kg] | AUC [1] [ng·h/mL] | F ([1]; PO: 10 mg/kg vs IV: 1 mg/kg) [%] | CL [2] [mL/min/kg] | AUC [2] [ng·h/mL] | Hepatic intrinsic clearance CLint(liver) [3] [mL/min/kg] | T1/2 [3] [h] | Test compound after 1 h incubation Remaining % (T = 60 min) [3] [%] | Hepatic intrinsic clearance CLint(liver) [4] [mL/min/kg] | T1/2 [4] [h] | Test compound after 1 h incubation Remaining % (T = 60 min) [4] [%] | IC50 (integrin α4β7) [nM] | IC50 (integrin α4β1) [nM] | α4β1/α4β7 (integrin α4β1) | Hepatic intrinsic clearance CLint(liver) [5] [mL/min/kg] | T1/2 [5] [h] | Test compound after 1 h incubation Remaining % (T = 60 min) [5] [%] |
| --- | --- | --- | --- | --- | --- | --- | --- | --- | --- | --- | --- | --- | --- | --- | --- | --- | --- |
| Cc1cc(F)cc(C)c1-c1c(F)c(C(CC(=O)O)NC(=O)[C@H](CC(C)C)n2nc(CCN3CC(F)C3)cc(C)c2=O)c(F)c2c1CCC2 (stereo partly shown) |  |  |  |  |  |  |  |  |  |  |  | < 1 | 90.7 | >100 |  |  |  |
